# Measured values: US10011599B2 (priority 2013, dated 2018)
# Key:
# [1] = test system: A375 cells; assay: cells; settings: Homo sapiens, A-375, 72 h, read-out: A375 XTT IC50 uM
# [2] = test system: phospho-ERK1/2 in A375 cells; assay: cells; settings: Homo sapiens, A-375, 3 h, read-out: A375 ICW IC50
SMILES,IC50 [1],IC50 [2]
"Cc1nc2cnc3cc(F)c(-c4ccc(Oc5cccc(F)n5)cc4Cl)cc3c2n1C1CCN(C(=O)CO)CC1 [Example 47, 1-(4-(8-(2-chloro-4-((6-fluoropyridin-2-yl)oxy)phenyl)-7-fluoro-2-methyl-1H-imidazo[4,5-c]quinolin-1-yl)piperidin-1-yl)-2-hydroxyethanone]",0.011 µM,16 nM
"Cc1ccnc(Oc2ccc(-c3cc4c(cc3F)ncc3nc(C)n(C5CCN(C(N)=O)CC5)c34)c(Cl)c2)n1 [Example 31, 4-(8-(2-chloro-4-((4-methylpyrimidin-2-yl)oxy)phenyl)-7-fluoro-2-methyl-1H-imidazo[4,5-c]quinolin-1-yl)piperidine-1-carboxamide]",0.0047 µM,6 nM
"COc1cc(Oc2nccc(C)n2)ccc1-c1cc2c(cc1F)ncc1ncn(C3(C)CCN(CCO)CC3)c12 [Example 18, 2-(4-(7-fluoro-8-(2-methoxy-4-((4-methylpyrimidin-2-yl)oxy)phenyl)-1H-imidazo[4,5-c]quinolin-1-yl)-4-methylpiperidin-1-yl)ethanol]",0.14 µM,247 nM
"Cc1nc2cnc3cc(F)c(-c4ccc(Oc5nccn(C)c5=O)cc4Cl)cc3c2n1C1CCN(C(N)=O)CC1 [Example 82, 4-(8-(2-chloro-4-((4-methyl-3-oxo-3,4-dihydropyrazin-2-yl)oxy)phenyl)-7-fluoro-2-methyl-1H-imidazo[4,5-c]quinolin-1-yl)piperidine-1-carboxamide]",2.33 µM,2180 nM
